# Only some compounds are listed: those with a hit (about 13% of all), similar ones and a draw of the others.
# miR-21 reporter: raises the signal of a miR-21 reporter; HeLa miR-21 FLuc reporter, luciferase, 48 h; Potency, µM (top dose mostly 38.3 µM), for inactives: at the highest dose reporter change, positive = more light; AID 2288; 340,000 tested, under 10 active; active = well fitted rising curve with a large enough effect; inconclusive = small, poorly fitted or top-dose-only effect; inactive = no such curve, though single readings can be large or run the other way;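 note: % of control where 0% means no effect; miR-21 action dims this reporter so a rising signal means less miR-21 action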
#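 Using DMEM plus 10% FBS, HeLa miR-21-FLuc cells are incubated with test compounds (final up to about 40uM) for 48 hours; firefly luciferase signal is then imaged following reagent-mediated lysis.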
# ALDH1A1 block: blocks purified human ALDH1A1 activity. 7.3% of 220,000 active. P00352. AID 1030. Potency, µM (top dose mostly 75.3 µM), for the others: at the top dose activity, negative = inhibition, most hits filed as inhibitors. Purified ALDH1A1, NADH fluorescence, propionaldehyde substrate; active = well fitted inhibition curve with a large enough effect, not every such curve was filed as active; inconclusive = small, poorly fitted or top-dose-only effect, or another doubt; inactive = no such curve, though single readings can be large or run the other way;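 also: potency is read from the fitted curve at half-maximal effect; plate controls were no enzyme wells and a reference inhibitor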
# Sfp inh: blocks B. subtilis Sfp PPTase activity | Q9F4F7 | hit rate 3.5% among 310,000 | Potency, µM, without a hit: max response, negative = inhibition, most hits filed as inhibitors | AID 1490 | Biochemical Sfp PPTase activity, qHTS; active means well fitted inhibition curve with a large enough effect; inconclusive means small, poorly fitted or top-dose-only effect, or another doubt; inactive means no such curve, though single readings can be large or run the other way;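 further: the enzyme is Sfp with the accession as filed and its product quenches rhodamine fluorescence; potency means the concentration at half of the fitted maximal effect; 0% = enzyme reaction without inhibitor and -100% = no enzyme wells; top concentration of the series not given in the record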
#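 Step 1, compound plus 15 nM Sfp-PPTase, 15 min, room temperature. Step 2, add rhodamine-CoA (5 uM) and BHQ-2-YbbR (12.5 uM). Step 3, read 525/598 nm fluorescence at 0 and 30 min.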
# LMNA splice mod: LMNA splicing modulation; HeLa LMNA splicing GFP/RFP minigene ratio, 48 h; Potency, µM (series often up to 46.1 µM), inactives show at the highest dose ratio change, negative = inhibition, most hits filed as inhibitors; 0.01% of 200,000 active; active = well fitted inhibition curve with a large enough effect in the signal ratio, with a control signal flat, not every such curve was filed as active; inconclusive = small, poorly fitted or top-dose-only effect, or effect the other way, or a change in a side signal; the % refers to the signal ratio; also: potency is read from the fitted curve at half-maximal effect; % is scaled to controls: 0 for no effect and ±100 for the full control effect
#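 S3 HeLa cells stably expressing lamin A-EGFP splicing minigene plus DsRed2, 600 cells/well, 48 h compound exposure at 37C. Laser-scanning cytometry; analysed as GFP (500-530 nm)/RFP (575-640 nm) total intensity ratio; 0.5% DMSO vehicle.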
# G9a inh: G9a (human) methyltransferase inhibition; AID 504332; Potency, µM (highest dose often 102 µM), for the others: top-dose activity, negative = inhibition, actives largely listed as inhibitors; G9a H3K9 monomethylation, AlphaScreen, 2 h; 8.8% of 350,000 active; also: potency is read from the fitted curve at half-maximal effect; % is scaled to controls: 0 for no effect and ±100 for the full control effect; nearly all actives have a fitted effect of over 75% in size
#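 Readings reflect AlphaScreen signal from monomethyl-H3K9 antibody detection. HMT at 20 nM; substrate b-H3K9 500 nM; cofactor SAM 20 uM; 2 h RT reaction; compounds tested as titrations in qHTS with 15 min preincubation.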
# KDM4E inh: inhibitors of human JMJD2E histone demethylase | Potency, µM (doses to about 57.1 µM), inactives show at the top dose activity change, negative = inhibition, actives largely listed as inhibitors | 1.6% of 230,000 active | JMJD2E catalytic domain, FDH-coupled NADH fluorescence (FDH is formaldehyde dehydrogenase) | B2RXH2; active = well fitted inhibition curve with a large enough effect, not every such curve was filed as active; inconclusive = small, poorly fitted or top-dose-only effect, or another doubt; inactive = no such curve, though single readings can be large or run the other way;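 also: potency is read from the fitted curve at half-maximal effect; 0% = wells with enzyme and -100% = buffer wells without enzyme; nearly all actives have a fitted effect of over 50% in size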
# Active calls of the source: *; ? = inconclusive; / = no result; [ ] = another dose, or the depositor's remark. Unless noted, calls follow the shape of the dose curve; as a rule, active = well fitted curve in the direction sought with a large enough effect; inconclusive = small, poorly fitted or top-dose-only effect, or another doubt; inactive = no such curve, though single readings can be large; an effect the other way counts as inactive or inconclusive.
[1] COc1cc([N+](=O)[O-])cc(/C=N/NC(=O)c2ccc(NC(=O)c3ccc(C)cc3)cc2)c1O
[2] COC(=O)C(C(C)=O)C(NC(=O)NCc1ccccc1)c1ccccc1 (stereo not drawn)
[3] Cc1ccc(S(=O)(=O)N2CCN(C3CCC(c4ccccc4)CC3)CC2)cc1 (stereo not drawn)
[4] CCS(=O)(=O)N1CCN(C2CCC(c3ccccc3)CC2)CC1 (stereo not drawn)
[5] O=C(COc1ccccc1F)Nc1nnc(SCc2cc(=O)n3ccccc3n2)s1
[6] CO/N=C\CC(=O)Nc1ccc(Cl)cc1Cl
[7] CCN(CC)c1ccc(NC(=O)CN2CCN(c3ccc(F)cc3)CC2)cc1
[8] CCOc1ccc(NC(=O)CN2CCN(c3ccc(F)cc3)CC2)cc1

Screen / compound no. | 1 | 2 | 3 | 4 | 5 | 6 | 7 | 8
miR-21 reporter | 15.1% | / | 1.6% | -5.1% | -3.6% | 6.8% | -3.7% | -20.7%
G9a inh | 24.2% | / | -6.4% | 10µM* | 14.1%[59 µM] | 10.1%[59 µM] | 8.91µM* | 14.6%
LMNA splice mod | / | / | -0.3% | -6.5% | -4.2%[46 µM] | / | -7.2% | /
Sfp inh | 2.9% | -4.9% | 8.4% | ? | / | -6.9% | 12.4% | 11.3%
ALDH1A1 block | 1.0% | -15.5%[13.5 µM] | -6.0% | ? | / | 12.9% | -6.8% | /
KDM4E inh | 6.2% | / | 2.2% | ? | / | 0.7% | 1.1% | /

[9] O=C(CN1CCN(c2ccc(Cl)cc2)CC1)Nc1ccc(F)cc1
[10] CCOCCCNC(=O)CN1CCN(c2ccc(F)cc2)CC1
[11] CCOc1ccc(NC(=O)CN2CCN(CC(=O)Nc3ccc(N(CC)CC)cc3)CC2)cc1
[12] CC(=O)c1ccc(NC(=O)CN2CCN(CC(=O)Nc3ccc(C(C)=O)cc3)CC2)cc1
[13] CC(=O)c1ccc(NC(=O)CN2CCN(c3ncccn3)CC2)cc1
[14] CCN(CC)c1ccc(NC(=O)CN2CCN(c3nc(C)cc(C)n3)CC2)cc1
[15] O=C(NCc1ccc(F)cc1)c1ccc2c(c1)nc1n2CCCCC1
[16] CC(C)Oc1ccc(CNC(=O)c2ccc3nc(C(C)C)oc3c2)cc1

Screen / compound no. | 9 | 10 | 11 | 12 | 13 | 14 | 15 | 16
miR-21 reporter | 8.7% | -0.5% | 0.3% | -3.8% | -0.7% | 25.2% | -35.4% | 8.7%
G9a inh | -1.3%[12.7 µM] | 11.2µM* | ? | -4.7% | ? | ? | 17.1%[59 µM] | 9.1%[59 µM]
LMNA splice mod | ? | -3.6% | 12.3%[46 µM] | / | 8.9% | 7.7% | ? | 13.5%[46 µM]
Sfp inh | -9.0% | ? | / | 9.7% | ? | 7.5% | / | /
ALDH1A1 block | 1.6% | ? | / | / | 8.91µM* | 7.94µM* | / | /
KDM4E inh | 6.3% | ? | / | / | ? | -1.8% | / | /

[17] CCN1CCN(c2nnc(-n3cccc3C(=O)NCc3ccccc3OC)s2)CC1
[18] COc1ccc(NC(=O)/C(=C\c2ccc(OC)c(OC)c2)NC(=O)c2ccco2)cc1
[19] O=C1CN(CC(=O)Nc2ccc(SC(F)F)cc2)CCN1
[20] N#Cc1ccsc1NC(=O)CN1CCN(c2ccc(O)cc2)CC1
[21] O=C(CN1CCN(c2ccc(O)cc2)CC1)Nc1ccc(SC(F)F)cc1
[22] O=C(CN1CCN(c2ccc(F)cc2)CC1)NCc1cccs1
[23] O=C(NCc1cccnc1)[C@@H]1[C@@H](C(=O)O)[C@H]2CC[C@@H]1O2
[24] NC(=O)C1(N2CCCCC2)CCN(CCCC(=O)c2ccc(F)cc2)CC1

Screen / compound no. | 17 | 18 | 19 | 20 | 21 | 22 | 23 | 24
miR-21 reporter | -9.3% | 2.2% | -11.1% | -13.2% | 23.2% | -0.5% | / | /
G9a inh | -35.7%[59 µM] | 21.6% | -11.2% | 17.8µM* | 2.24µM* | 2.24µM* | / | -48.0%[12.7 µM]
LMNA splice mod | / | / | -2.3% | ? | ? | 13.2%[46 µM] | / | /
Sfp inh | / | 17.4% | 4.5% | -25.4% | 35.5µM* | ? | / | 14.1%
ALDH1A1 block | / | / | -5.1% | ? | 8.91µM* | ? | 0.1%[13.5 µM] | /
KDM4E inh | / | / | 13.6% | -20.0% | ? | ? | / | /

[25] Cc1ccc(Cn2c(SCc3ccc(C(=O)N4CCCCCC4)cc3)nc3ccncc32)cc1
[26] COc1ccc(CCNC(=O)C(=O)NCC(c2cccs2)S(=O)(=O)c2ccccc2)cc1 (stereo not drawn)
[27] CC(C)OCCCn1c(-c2ccc(Br)cc2)c[nH]c1=S
[28] CCn1c(COc2ccc(=O)n(-c3ccccc3)n2)n[nH]c1=S
[29] O=C(NC[C@@H]1CCCCN1)c1cc(OCC(F)(F)F)ccc1OCC(F)(F)F
[30] N#Cc1cc([N+](=O)[O-])c2sc(C(N)=O)[n+]([O-])c2c1
[31] CCOC(=O)c1c(NC(=O)COC(=O)/C=C/c2ccccc2)sc(C(=O)NC)c1C
[32] CC(=O)c1ccc(OC(=O)c2nc(-c3ccccc3)oc2C)cc1

Screen / compound no. | 25 | 26 | 27 | 28 | 29 | 30 | 31 | 32
miR-21 reporter | 21.6% | -1.8% | 11.8% | -0.1% | / | / | / | -2.0%
G9a inh | -0.6%[59 µM] | 14.5%[59 µM] | 3.55µM* | 25.1µM* | 20.8%[21.5 µM] | 28.2µM* | 26.2%[12.7 µM] | 56.2µM*
LMNA splice mod | / | 22.5%[46 µM] | 25.6%[46 µM] | 22.7%[46 µM] | -11.0% | / | / | /
Sfp inh | / | / | ? | -1.1% | 21.5% | / | / | 12.1%
ALDH1A1 block | / | / | ? | -2.8% | 6.2%[20.9 µM] | / | / | /
KDM4E inh | / | / | -4.7% | 6.6% | 3.1%[25.5 µM] | / | / | /

[33] C/C(=N\NC(=O)c1nnn(-c2nonc2N)c1CN1CCc2ccccc21)c1ccccc1O
[34] CNC(=O)c1sc(=S)n(-c2ccc(OC)cc2)c1N
[35] CCOC(=O)c1ccc(-n2c(=S)sc3c(=O)[nH]c(C)nc32)cc1
[36] COc1ccc(-n2c(N)c(C(=O)NCc3ccco3)sc2=S)cc1
[37] CCOC(=O)CSc1nc2c(sc(=S)n2-c2ccc(CC)cc2)c(=O)[nH]1
[38] C=CCNC(=O)c1sc(=S)n(-c2ccc(C(=O)OCC)cc2)c1N
[39] CCOC(=O)c1ccc(-n2c(N)c(C(=O)NCc3ccco3)sc2=S)cc1
[40] Cc1ccc(N(CC(=O)N2CCN(c3cc(Cl)ccc3C)CC2)S(=O)(=O)c2c(C)noc2C)cc1

Screen / compound no. | 33 | 34 | 35 | 36 | 37 | 38 | 39 | 40
miR-21 reporter | -0.9% | -6.3% | 5.6% | -2.8% | 0.8% | -0.2% | -7.2% | 20.8%
G9a inh | / | 5.3% | 1.78µM* | ? | ? | 3.16µM* | ? | 2.6%[59 µM]
LMNA splice mod | / | -1.1%[46 µM] | 23.0% | -7.9% | / | -12.6% | 29.0% | /
Sfp inh | 12.2% | 26.2% | 12.6µM* | 3.6% | 14.5% | 20µM* | 35.5µM* | /
ALDH1A1 block | / | -3.0% | 7.08µM* | ? | / | 12.6µM* | 17.8µM* | /
KDM4E inh | / | -2.6% | -1.5% | 1.7% | / | -2.6% | ? | /

# Shown bar-delimited: part of the list above
entry | Molecule | miR-21 reporter | G9a inh | LMNA splice mod | Sfp inh | ALDH1A1 block | KDM4E inh
40 | Cc1ccc(N(CC(=O)N2CCN(c3cc(Cl)ccc3C)CC2)S(=O)(=O)c2c(C)noc2C)cc1 | 20.8% | 2.6%[59 µM] | / | / | / | /
37 | CCOC(=O)CSc1nc2c(sc(=S)n2-c2ccc(CC)cc2)c(=O)[nH]1 | 0.8% | ? | / | 14.5% | / | /

# (continued)
[41] N#Cc1cc(C(=O)c2cc(Cl)ccc2O)cn(-c2ccccc2)c1=O
[42] N#CC1=C(S)N(c2ccccc2)C(c2ccc(-c3cc(Cl)ccc3Cl)o2)NC1=O (stereo not drawn)
[43] N#CC1=C(S)N(c2ccccc2)C(c2ccc(-c3ccc(Cl)c(Cl)c3)o2)NC1=O (stereo not drawn)
[44] Cc1cc(Cl)ccc1NC(=O)Cn1nnc2sc(-c3ccccc3)cc2c1=O
[45] CN1c2ccccc2C(O)=C(C(=S)Nc2ccccc2)S1(=O)=O
[46] Cc1ccccc1NC(=S)C1=C(O)c2sccc2N(C)S1(=O)=O
[47] CN1c2ccsc2C(O)=C(C(=S)Nc2ccccc2)S1(=O)=O
[48] Cc1cc(N2CCN(C)CC2)nc2ccc(NC(=O)Nc3ccccc3Cl)cc12

Screen / compound no. | 41 | 42 | 43 | 44 | 45 | 46 | 47 | 48
miR-21 reporter | 6.7% | -0.6% | -11.5% | -2.5% | -3.6% | -10.3% | 0.5% | -62.8%
G9a inh | 10.1%[59 µM] | ? | ? | 29.2%[59 µM] | ? | 22.4µM* | ? | ?
LMNA splice mod | ? | -2.5% | / | / | -5.7% | -11.2% | -21.9% | -21.2%[46 µM]
Sfp inh | 9.5% | 28.2µM* | 35.5µM* | / | -7.4% | 56.2µM* | 56.2µM* | /
ALDH1A1 block | -4.8% | ? | / | / | -4.8% | ? | ? | /
KDM4E inh | 1.9% | -9.9% | 25.1µM* | / | -6.8% | ? | -16.1% | /

# Screens: PubChem, National Center for Advancing Translational Sciences (NCATS)
